The values that follow come from ChEMBL document CHEMBL1137161, “Pharmacological evaluation of selected arylpiperazines with atypical antipsychotic potential” (Bioorg Med Chem Lett, 2004).

By UniProt entry, the sequences of proteins in these tests, tags left out.
UniProt P21728, whole entry: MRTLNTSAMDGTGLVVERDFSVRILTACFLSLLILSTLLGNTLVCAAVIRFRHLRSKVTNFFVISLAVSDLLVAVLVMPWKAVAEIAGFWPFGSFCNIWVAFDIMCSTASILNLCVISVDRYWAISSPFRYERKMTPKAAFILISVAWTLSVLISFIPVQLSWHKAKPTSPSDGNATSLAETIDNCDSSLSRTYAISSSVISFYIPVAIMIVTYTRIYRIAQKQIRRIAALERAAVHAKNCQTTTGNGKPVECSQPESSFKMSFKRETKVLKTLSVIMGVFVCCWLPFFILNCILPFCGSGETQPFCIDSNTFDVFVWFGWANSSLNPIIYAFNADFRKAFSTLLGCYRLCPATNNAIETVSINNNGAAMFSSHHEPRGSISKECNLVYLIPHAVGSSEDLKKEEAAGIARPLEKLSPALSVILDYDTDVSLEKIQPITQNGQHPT

This assay concerns the target D(1A) dopamine receptor (Homo sapiens, UniProt P21728).

`Cc1cccc(N2CCN(CCc3ccc4nn[nH]c4c3)CC2)c1C` gave a Ki of 4.68 µM. Next, `c1ccc2c(N3CCN(CCc4ccc5[nH]nnc5c4)CC3)cccc2c1`: 5.75 µM.
